scFv variants of Ab-14 (light chain) against a SARS-CoV-2 spike peptide

Reference: Li et al. 2023, doi:10.1038/s41467-023-39022-2. File: FLAb, binding data.

Antigen: PDVDLGDISGINAS, a 14-residue peptide of the SARS-CoV-2 spike HR2 region.

Ab-14 is the parent antibody, in scFv form: VH, then the linker GGGGSGGGGSGGGGS, then VL. The heavy chain is unchanged in all variants.
VH: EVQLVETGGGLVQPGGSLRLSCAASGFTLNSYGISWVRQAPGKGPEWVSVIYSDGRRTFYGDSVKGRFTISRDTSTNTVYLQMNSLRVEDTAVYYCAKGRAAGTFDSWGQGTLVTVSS
VL: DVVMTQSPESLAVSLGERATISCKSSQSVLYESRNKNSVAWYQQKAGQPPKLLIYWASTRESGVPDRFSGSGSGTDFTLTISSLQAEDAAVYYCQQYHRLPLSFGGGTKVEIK

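The parent was found by panning a naive human phage display library on the peptide. Designed CDR sequences, proposed from the first random library and measured here. Their group label is 14L_En_Gibbs (En: ensemble of fine-tuned language models; Gibbs: Gibbs sampling). Affinity was read by AlphaSeq, a pooled yeast mating assay with surface-displayed partners. After mating in shaken culture at 30 °C for 16 h, diploids were selected and their barcode pairs sequenced. Read counts were normalised to the haploid input and turned into Kd by a linear fit to BCL2-family pairs of known affinity, for each replicate. There are six technical replicates.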

The parent's light chain CDRs are KSSQSVLYESRNKNSVA, WASTRES, QQYHRLPLS; each variant's own CDRs replace them letter for letter.
Numbers give log10(Kd / nM), so 0 is 1 nM and 3 is 1 µM. Smaller is tighter.
A mean of the replicates is given; it leaves out those without a signal.
"n.d." marks a missing value. The strain was present, yet no cells mated with the target were sequenced in that replicate, which points to weak or no binding.
The range of this assay differs from that of the first round, and the authors advise against merging the two.

{"CDR-L1": "TLMYAGEQEGEEKKSVA", "CDR-L2": "NAIIKNE", "CDR-L3": "QQYVRLPLA", "log10 Kd, replicates": "0.69 / 0.45 / 0.75 / 0.40 / 0.56 / 0.57", "mean log10 Kd (nM)": "0.57", "signal with controls": "1 of 18 (3.08)"}
{"CDR-L1": "KVQYQLAYSQAHTNNIA", "CDR-L2": "DASVVCA", "CDR-L3": "QQYQRLPIG", "log10 Kd, replicates": "1.00 / 1.01 / 1.09 / 0.71 / 0.57 / 0.89", "mean log10 Kd (nM)": "0.88", "signal with controls": "0 of 18"}
{"CDR-L1": "ALRQKGFELHGDRQSIA", "CDR-L2": "HSDTRAA", "CDR-L3": "QQYSMLPLA", "log10 Kd, replicates": "0.59 / 0.17 / 0.23 / 0.13 / 0.12 / 0.59", "mean log10 Kd (nM)": "0.30", "signal with controls": "1 of 18 (4.07)"}
{"CDR-L1": "KLWMIFFEGQSELQAVA", "CDR-L2": "NAGVLRQ", "CDR-L3": "QQYNHLPLS", "log10 Kd, replicates": "n.d. / 2.30 / n.d. / n.d. / n.d. / n.d.", "mean log10 Kd (nM)": "2.30", "signal with controls": "1 of 18 (2.40)"}
{"CDR-L1": "TLVGNIQGGGWMIKSVA", "CDR-L2": "DAVQRVN", "CDR-L3": "QQYYRLPLS", "log10 Kd, replicates": "1.40 / 0.95 / 1.14 / 1.60 / 1.28 / n.d.", "mean log10 Kd (nM)": "1.27", "signal with controls": "2 of 18 (2.08)"}
{"CDR-L1": "RLNVFQYAITGDNYAIA", "CDR-L2": "NARETLM", "CDR-L3": "QQYMRLPLT", "log10 Kd, replicates": "0.68 / 1.50 / 1.19 / 0.39 / 1.02 / 0.69", "mean log10 Kd (nM)": "0.91", "signal with controls": "1 of 18 (1.43)"}
{"CDR-L1": "TIDDEMPSHGLKWNSIA", "CDR-L2": "GVATVLQ", "CDR-L3": "QQYHRLPLI", "log10 Kd, replicates": "2.24 / 2.63 / 2.28 / 1.94 / 2.17 / 2.00", "mean log10 Kd (nM)": "2.21", "signal with controls": "0 of 18"}
{"CDR-L1": "HLSDRLSYGKDLQNAVA", "CDR-L2": "GVQTRMT", "CDR-L3": "QQYARLPLL", "log10 Kd, replicates": "n.d. / 0.65 / 0.38 / n.d. / n.d. / n.d.", "mean log10 Kd (nM)": "0.51", "signal with controls": "0 of 18"}
{"CDR-L1": "VLPDNLLMKESQYHSIA", "CDR-L2": "NGVQRME", "CDR-L3": "QQYMRLPLT", "log10 Kd, replicates": "-0.19 / -0.40 / -0.47 / -0.12 / -0.34 / 0.01", "mean log10 Kd (nM)": "-0.25", "signal with controls": "0 of 18"}
{"CDR-L1": "KLQTLTYFENIGEHSVA", "CDR-L2": "DVNTHVD", "CDR-L3": "QQYFRLPLS", "log10 Kd, replicates": "0.69 / 0.74 / 0.61 / 0.52 / -0.01 / 0.83", "mean log10 Kd (nM)": "0.56", "signal with controls": "1 of 18 (3.02)"}
{"CDR-L1": "KLMNSLGAFKQWEDNVA", "CDR-L2": "EVEHKVA", "CDR-L3": "QQYDHLPLT", "log10 Kd, replicates": "n.d. / n.d. / n.d. / 2.25 / n.d. / 2.52", "mean log10 Kd (nM)": "2.39", "signal with controls": "0 of 18"}
{"CDR-L1": "KVTTNLEHQADRKNSIA", "CDR-L2": "EADMVAA", "CDR-L3": "QDYMRLPLI", "log10 Kd, replicates": "1.96 / 1.97 / 2.84 / 1.80 / 2.07 / 1.70", "mean log10 Kd (nM)": "2.06", "signal with controls": "0 of 18"}
{"CDR-L1": "HIMKFMSQIGGARNNVA", "CDR-L2": "GDTKLAQ", "CDR-L3": "QHYHRLPLS", "log10 Kd, replicates": "n.d. / n.d. / n.d. / n.d. / n.d. / n.d.", "mean log10 Kd (nM)": "n.d.", "signal with controls": "2 of 18 (3.12)"}
{"CDR-L1": "SVTRETDGNGLKWNSVA", "CDR-L2": "DAAEAMT", "CDR-L3": "QQYQRLPLT", "log10 Kd, replicates": "0.13 / 0.07 / 0.10 / -0.17 / 0.07 / 0.02", "mean log10 Kd (nM)": "0.03", "signal with controls": "1 of 18 (2.66)"}
{"CDR-L1": "KLSWTCTGDLNQMHSVA", "CDR-L2": "ESTVAVD", "CDR-L3": "QQYAHLPLT", "log10 Kd, replicates": "0.24 / 0.18 / 0.12 / 0.07 / 0.29 / 0.32", "mean log10 Kd (nM)": "0.20", "signal with controls": "3 of 18 (3.01)"}
{"CDR-L1": "HFSGGMNQGSSMEHNIA", "CDR-L2": "EGTYAEE", "CDR-L3": "QQYARLPLQ", "log10 Kd, replicates": "1.77 / 0.65 / 0.98 / 1.15 / 0.56 / 0.89", "mean log10 Kd (nM)": "1.00", "signal with controls": "0 of 18"}
{"CDR-L1": "SLYEAMQTGGLHTSNIA", "CDR-L2": "DANQQMR", "CDR-L3": "QHYNRLPLA", "log10 Kd, replicates": "0.50 / 0.73 / 0.78 / 0.57 / 0.55 / 0.90", "mean log10 Kd (nM)": "0.67", "signal with controls": "1 of 18 (2.61)"}
{"CDR-L1": "TLMFDGEYSDKENYAIA", "CDR-L2": "DAIHAQV", "CDR-L3": "QQYVRLPLS", "log10 Kd, replicates": "1.14 / 0.77 / 0.79 / 0.39 / 1.09 / 0.82", "mean log10 Kd (nM)": "0.83", "signal with controls": "2 of 18 (1.71)"}
{"CDR-L1": "WLAMEEQPGDRGYSSVA", "CDR-L2": "DADARMA", "CDR-L3": "QQYQRLPLS", "log10 Kd, replicates": "1.07 / 0.49 / 0.39 / 0.65 / 0.63 / 0.64", "mean log10 Kd (nM)": "0.65", "signal with controls": "0 of 18"}
{"CDR-L1": "NMKVGLNFEDINHQAIA", "CDR-L2": "SVDEREK", "CDR-L3": "QQYSRLPLQ", "log10 Kd, replicates": "1.04 / 1.27 / 1.33 / 0.98 / 0.96 / 1.20", "mean log10 Kd (nM)": "1.13", "signal with controls": "1 of 18 (2.84)"}
{"CDR-L1": "NLMSGMSELSVWSYSIA", "CDR-L2": "SASIRGS", "CDR-L3": "QQYFRLPLL", "log10 Kd, replicates": "n.d. / 1.00 / 1.33 / 0.22 / 0.96 / 1.70", "mean log10 Kd (nM)": "1.04", "signal with controls": "0 of 18"}
{"CDR-L1": "DFEQWMFSQNRDDNSIA", "CDR-L2": "HADELVT", "CDR-L3": "QQYAQLPLT", "log10 Kd, replicates": "0.50 / 0.48 / 0.55 / 0.57 / 0.27 / 0.54", "mean log10 Kd (nM)": "0.49", "signal with controls": "2 of 18 (2.23)"}
{"CDR-L1": "HVAQTRQEDINNKKSVA", "CDR-L2": "EGSVVID", "CDR-L3": "QQYSKLPFS", "log10 Kd, replicates": "1.15 / 0.73 / 0.42 / 0.97 / 0.60 / 0.69", "mean log10 Kd (nM)": "0.76", "signal with controls": "0 of 18"}

Empty control strains, which show no peptide, gave a signal in 4% of pairings with all light chain designs; the median was 2.64 and 95% of these signals were weaker than 1.59. No background was subtracted. For each scFv, signals with the empty controls are counted beside the result, with their mean in brackets.
Of ten entries with the parent sequence, four were seen in most replicates (averages 0.34 to 2.37), three in one and three in none, so single entries are noisy.
The authors averaged sequences with at least three values out of six and counted those with two or fewer as poor binders.